This passage reports inhibition results from ChEMBL document CHEMBL5257075, “Design, synthesis and biological evaluation of quinazoline SOS1 inhibitors” (Bioorg Med Chem Lett, 2023).

The experiment concerns the target T1, Son of sevenless homolog 1 (Homo sapiens) (UniProt Q07889).
T1 sequence (whole entry): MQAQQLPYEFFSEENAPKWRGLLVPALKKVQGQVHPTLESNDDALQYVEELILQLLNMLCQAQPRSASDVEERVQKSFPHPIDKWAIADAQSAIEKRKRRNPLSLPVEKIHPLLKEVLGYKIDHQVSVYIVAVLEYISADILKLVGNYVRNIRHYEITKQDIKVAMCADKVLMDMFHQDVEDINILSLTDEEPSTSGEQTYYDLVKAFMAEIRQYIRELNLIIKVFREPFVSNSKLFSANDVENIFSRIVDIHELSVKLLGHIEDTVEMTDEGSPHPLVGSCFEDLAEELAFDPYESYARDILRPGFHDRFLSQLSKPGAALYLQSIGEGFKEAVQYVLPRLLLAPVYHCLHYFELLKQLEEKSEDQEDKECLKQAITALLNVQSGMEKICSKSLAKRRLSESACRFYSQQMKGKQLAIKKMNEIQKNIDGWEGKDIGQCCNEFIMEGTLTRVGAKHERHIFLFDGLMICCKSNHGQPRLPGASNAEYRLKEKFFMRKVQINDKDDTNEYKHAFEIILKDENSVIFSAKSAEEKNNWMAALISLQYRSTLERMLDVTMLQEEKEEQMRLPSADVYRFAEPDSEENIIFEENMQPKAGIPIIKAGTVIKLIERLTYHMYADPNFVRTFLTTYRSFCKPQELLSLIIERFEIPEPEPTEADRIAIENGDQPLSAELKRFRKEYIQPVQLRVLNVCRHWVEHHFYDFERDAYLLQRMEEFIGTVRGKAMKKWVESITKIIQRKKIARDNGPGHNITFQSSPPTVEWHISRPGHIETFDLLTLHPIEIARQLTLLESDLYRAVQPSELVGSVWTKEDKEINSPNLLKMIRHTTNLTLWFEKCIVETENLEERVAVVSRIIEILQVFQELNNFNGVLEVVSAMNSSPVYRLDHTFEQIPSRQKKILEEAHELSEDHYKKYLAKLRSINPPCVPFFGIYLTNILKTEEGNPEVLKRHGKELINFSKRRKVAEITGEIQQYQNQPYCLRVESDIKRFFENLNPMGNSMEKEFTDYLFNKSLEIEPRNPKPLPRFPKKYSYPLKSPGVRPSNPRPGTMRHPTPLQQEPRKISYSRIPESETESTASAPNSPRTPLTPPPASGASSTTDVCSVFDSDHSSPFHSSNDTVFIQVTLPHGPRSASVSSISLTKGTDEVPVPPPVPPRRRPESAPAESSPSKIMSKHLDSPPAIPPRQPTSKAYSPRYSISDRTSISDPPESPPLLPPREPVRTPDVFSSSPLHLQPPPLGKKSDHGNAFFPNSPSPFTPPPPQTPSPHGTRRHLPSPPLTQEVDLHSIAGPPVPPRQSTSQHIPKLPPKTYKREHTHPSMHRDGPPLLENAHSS
The experiment can be described thus: Inhibition of SOS1 (unknown origin) at 500 nM.

With `CNCc1ccccc1-c1csc([C@@H](C)Nc2nc(C)nc3cc(OC)c(OC)cc23)c1` [BAY-293], the inhibition – broadly, the share of the control response that was lost under treatment – was found to be 99.7%.
